Measured values reported in ChEMBL document CHEMBL1124775 (J Med Chem, 1990).

Key:
Rattus norvegicus [1] = organism: Rattus norvegicus; experiment: Binding of [3H]diprenorphine to rat brain membranes was evaluated and the dissociation constant (KD) was determined.; set-up: species or system Membrane
[2] = The association rate constant (K1) was determined.
[3] = The dissociation rate constant (K-1) was determined.
Rattus norvegicus [4] = organism: Rattus norvegicus; experiment: Binding of [3H]diprenorphine to rat striatal membranes was evaluated and the dissociation constant (KD) was determined.; conditions: Striatum

## [3H]C1[C@H](C(C)(C)O)[C@]2(OC)CC[C@]13[C@H]1Cc4ccc(O)c5c4[C@@]3(CCN1CC1CC1)[C@H]2O5 (some centres undefined)
Rattus norvegicus [1]
  Kd: 0.047 nM
[2]
  K1: 0.5 min⁻¹
[3]
  K-1: 0.000533 s⁻¹
Rattus norvegicus [4]
  Kd: 0.046 nM
